Article PMC10724237, “Identification of 5-HT2A receptor signaling pathways associated with psychedelic potential” (Nature Communications, 2023)

Amino acid sequences for entries named in this document (tags omitted).
UniProt P28223, whole entry: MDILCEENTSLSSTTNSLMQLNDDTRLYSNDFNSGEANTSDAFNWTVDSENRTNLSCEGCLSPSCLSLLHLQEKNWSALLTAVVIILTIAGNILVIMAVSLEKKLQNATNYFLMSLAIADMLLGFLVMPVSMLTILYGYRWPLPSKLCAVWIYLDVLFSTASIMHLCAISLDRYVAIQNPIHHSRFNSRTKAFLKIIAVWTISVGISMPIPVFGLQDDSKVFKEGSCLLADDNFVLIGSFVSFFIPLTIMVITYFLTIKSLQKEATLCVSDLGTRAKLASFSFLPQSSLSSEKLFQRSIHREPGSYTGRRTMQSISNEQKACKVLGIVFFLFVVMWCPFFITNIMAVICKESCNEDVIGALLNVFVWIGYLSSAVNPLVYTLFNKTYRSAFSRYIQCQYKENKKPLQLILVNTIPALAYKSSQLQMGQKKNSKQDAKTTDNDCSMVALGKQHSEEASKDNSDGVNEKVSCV

Target: T1, 5-HT2A receptor (5-HT2AR) (Homo sapiens, UniProt P28223)
T1 construct: gene HTR2A; full-length receptor in HEK293T; co-expressed Galphaq-RLuc8/Gbeta1/Ggamma1-GFP2 for Gq dissociation; C-terminal RLuc8 fusion for beta-arrestin2 recruitment
Format: cell-based

`NCCc1c[nH]c2ccc(O)cc12` [5-HT] was tested. Which EC50 did it give?
The EC50 was “Comparison of 5-HT2A receptor Gq dissociation (red) and β-arrestin2 recruitment (blue) for 5-HT (D)”.
